Literature values as cited in paper PMC5390903, “Influence of drug transporters and stereoselectivity on the brain penetration of pioglitazone as a potential medicine against Alzheimer's disease” (Scientific Reports, 2015).

Test system: P-gp
Conditions: human placental apical membrane; cited from earlier work

For `CN(CCOc1ccc(CC2SC(=O)NC2=O)cc1)c1ccccn1` (stereo not shown) [rosiglitazone], the “transporter responsible for transport (P-gp, BCRP, MRP1 investigated)” value is listed as “predominantly transported by P-gp”.
